For three compounds, IC50 results are on record in patent US12162888B2, “Carboxamides as ubiquitin-specific protease inhibitors” (Valo Early Discovery, Inc., priority 2018, dated 2024).

Amino acid sequences for entries named in this document (tags omitted).
UniProt Q96RU2, whole entry: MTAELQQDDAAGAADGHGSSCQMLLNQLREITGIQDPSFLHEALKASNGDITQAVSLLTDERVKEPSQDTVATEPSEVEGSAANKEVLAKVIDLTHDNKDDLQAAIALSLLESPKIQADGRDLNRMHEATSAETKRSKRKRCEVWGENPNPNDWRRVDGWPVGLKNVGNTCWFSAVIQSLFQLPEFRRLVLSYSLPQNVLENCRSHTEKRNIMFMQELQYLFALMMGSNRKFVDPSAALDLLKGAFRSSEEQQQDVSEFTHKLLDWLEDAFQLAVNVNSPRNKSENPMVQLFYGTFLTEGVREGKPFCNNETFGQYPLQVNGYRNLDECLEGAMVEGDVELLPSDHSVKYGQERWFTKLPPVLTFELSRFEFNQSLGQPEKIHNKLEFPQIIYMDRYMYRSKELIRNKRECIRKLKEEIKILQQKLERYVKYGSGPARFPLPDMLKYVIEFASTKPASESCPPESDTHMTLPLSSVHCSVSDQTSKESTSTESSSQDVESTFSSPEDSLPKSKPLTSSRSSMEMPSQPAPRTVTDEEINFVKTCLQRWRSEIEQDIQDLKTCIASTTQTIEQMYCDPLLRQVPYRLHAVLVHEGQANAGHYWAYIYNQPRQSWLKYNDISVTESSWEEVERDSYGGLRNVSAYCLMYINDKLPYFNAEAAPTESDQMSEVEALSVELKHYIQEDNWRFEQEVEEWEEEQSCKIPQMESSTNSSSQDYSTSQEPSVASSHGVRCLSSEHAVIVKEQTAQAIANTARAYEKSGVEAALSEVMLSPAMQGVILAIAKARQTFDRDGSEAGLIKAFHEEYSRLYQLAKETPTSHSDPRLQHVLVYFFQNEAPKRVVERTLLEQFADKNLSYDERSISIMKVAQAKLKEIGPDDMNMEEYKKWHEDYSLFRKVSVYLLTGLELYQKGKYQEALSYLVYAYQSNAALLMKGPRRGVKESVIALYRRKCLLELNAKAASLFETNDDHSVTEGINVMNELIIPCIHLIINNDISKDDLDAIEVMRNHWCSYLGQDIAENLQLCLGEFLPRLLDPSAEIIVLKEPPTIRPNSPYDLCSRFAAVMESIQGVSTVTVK
UniProt Q9UHP3, whole entry: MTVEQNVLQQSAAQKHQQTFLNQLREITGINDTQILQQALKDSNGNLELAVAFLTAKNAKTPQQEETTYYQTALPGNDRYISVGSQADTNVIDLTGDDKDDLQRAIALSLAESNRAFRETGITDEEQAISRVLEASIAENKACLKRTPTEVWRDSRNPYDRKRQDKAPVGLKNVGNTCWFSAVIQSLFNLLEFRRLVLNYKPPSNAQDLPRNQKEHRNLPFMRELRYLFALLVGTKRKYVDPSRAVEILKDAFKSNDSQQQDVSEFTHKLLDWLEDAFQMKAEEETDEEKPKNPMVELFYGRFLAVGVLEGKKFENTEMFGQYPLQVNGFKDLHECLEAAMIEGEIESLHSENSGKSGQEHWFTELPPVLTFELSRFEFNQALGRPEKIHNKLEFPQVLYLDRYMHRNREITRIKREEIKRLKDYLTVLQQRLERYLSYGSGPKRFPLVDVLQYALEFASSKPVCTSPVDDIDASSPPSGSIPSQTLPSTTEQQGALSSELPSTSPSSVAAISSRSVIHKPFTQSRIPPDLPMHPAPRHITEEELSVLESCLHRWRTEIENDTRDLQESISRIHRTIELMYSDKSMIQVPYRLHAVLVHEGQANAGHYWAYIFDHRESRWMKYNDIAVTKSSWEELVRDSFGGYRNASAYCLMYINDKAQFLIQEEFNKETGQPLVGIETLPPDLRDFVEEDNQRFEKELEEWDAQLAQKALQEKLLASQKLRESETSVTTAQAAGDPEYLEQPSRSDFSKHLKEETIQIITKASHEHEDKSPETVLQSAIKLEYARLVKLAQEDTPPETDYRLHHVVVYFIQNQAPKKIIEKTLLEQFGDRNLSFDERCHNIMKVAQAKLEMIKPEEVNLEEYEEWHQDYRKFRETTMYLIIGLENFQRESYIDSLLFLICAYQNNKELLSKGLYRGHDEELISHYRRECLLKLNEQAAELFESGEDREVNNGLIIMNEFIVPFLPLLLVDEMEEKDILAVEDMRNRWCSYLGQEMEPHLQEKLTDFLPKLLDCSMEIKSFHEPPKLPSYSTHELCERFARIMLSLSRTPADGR

Assay [1] has as its target USP28 (His-tagged USP28-FL-mammalian) (Homo sapiens, UniProt Q96RU2). The assay can be described thus: Ubiquitin-Rhodamine 110 Assay for USP28 Activity, Example A-1(a). The conditions noted are these: read-out: USP28 A-1(a), biochemical IC50 range. The procedure:
Example A-1(a): Biochemical Assay: Ubiquitin-Rhodamine 110 Assay for USP28 Activity
The assay was performed in a final volume of 9 μL in assay buffer containing 20 mM Tris-HCl (pH 8.0, (1M Tris-HCl, pH 8.0 solution; Corning 46-031-CM)), 3 mM BME (2-Mercaptoethanol; Sigma 63689-25ML-F), 0.03% BGG (0.22 μM filtered, Sigma, G7516-25G), and 0.01% Triton X-100 (Sigma, T9284-10L). Nanoliter quantities of 10-point, 3-fold serial dilution in DMSO was pre-dispensed into 1536 assay plates (Corning, #3724BC) for a final test concentration of 25 μM to 1.3 nM, top to lowest dose, respectively. Enzyme USP28, construct His-tagged USP28-FL-mammalian, (protein expression and purification procedure described below). Concentration and incubation times were optimized for the maximal signal-to-background while maintaining initial velocity conditions at a fixed substrate concentration. The final concentration of the enzyme in the assay was […]. Final substrate (Ub-Rh110; Ubiquitin-Rhodamine 110, UbiQ-126) concentration was 25 nM with [Ub-Rh110]<<Km. 3 μL of 2× enzyme was added to assay plates (pre-stamped with compound) preincubated with […] for 30 minutes and then 3 μL of 2× Ub-Rh110 was added to assay plates. Plates were incubated for 45 minutes at room temperature before addition of 3 μL of stop solution (final concentration of 10 mM citric acid (Sigma, 251275-500G)). Fluorescence was read on the Envision (Excitation at 485 nm and Emission at 535 nm; Perkin Elmer) or on the PheraSTAR (Excitation at 485 nm and Emission at 535 nm; BMG Labtech). […]
(§1) For assay formats Example A-1(a), A-1(b), and A-2, data were reported as percent inhibition compared with control wells based on the following equation: % inh=1−((FLU−AveLow)/(AveHigh−AveLow)) where FLU=measured Fluorescence, AveLow=average Fluorescence of no enzyme control (n=16), and AveHighh=average Fluorescence of DMSO control (n=16). IC50 values were determined by curve fitting of the standard 4 parameter logistic fitting algorithm included in the Activity Base software package: IDBS XE Designer Model 205. […]

Assay [2] deals with USP25 (USP25-His6, Boston Biochem E-546) (Homo sapiens, UniProt Q9UHP3). Kind of assay: Ubiquitin-Rhodamine 110 Assay for USP25 Activity, Example A-3. As to conditions: read-out: USP25 A-3, biochemical IC50 range. The procedure:
Example A-3: Biochemical Assay: Ubiquitin-Rhodamine 110 Assay for USP25 Activity
The assay was performed in a final volume of 9 μL in assay buffer containing 20 mM Tris-HCl (pH 8.0, (1M Tris-HCl, pH 8.0 solution; Corning 46-031-CM)), 3 mM BME (2-Mercaptoethanol; Sigma 63689-25ML-F), 0.03% BGG (0.22 μM filtered, Sigma, G7516-25G), and 0.01% Triton X-100 (Sigma, T9284-10L). Nanoliter quantities of 10-point, 3-fold serial dilution in DMSO was pre-dispensed into 1536 assay plates (Corning, #3724BC) for a final test concentration of 25 μM to 1.3 nM, top to lowest dose, respectively. Enzyme USP25, construct USP25-His6, (Boston Biochem E-546). […] Fluorescence was read on the Envision (Excitation at 485 nm and Emission at 535 nm; Perkin Elmer) or on the PheraSTAR (Excitation at 485 nm and Emission at 535 nm; BMG Labtech).
as §1

As to `COC[C@H]1CN(c2ccc3c(c2)OC[C@H](NC(=O)c2sc4nc(C)ccc4c2N)C3)CCN1`, the figures for the IC50 in assay [1] and in assay [2] were 1 to 50 nM and 200 to 2000 nM, respectively.

As for `Cc1ccc2c(N)c(C(=O)NC3COc4cc(N5CC(N)C6(C5)OCCC6C)ccc4C3)sc2n1` (centres unmarked), the concentration for half-maximal inhibition (IC50) in assay [1] was 1 to 50 nM.

As for `Cc1ccc2c(N)c(C(=O)N[C@H]3COc4cc(N5CC[C@H]6CNC[C@H]65)cc(F)c4C3)sc2n1`, the IC50 in assay [1] fell in the range of 1 to 50 nM; in assay [2], 50 to 200 nM.

As a reminder, the IC50 is the concentration that inhibits the measured activity by half.
